# AlphaSeq binding of Ab-14 heavy chain variants to a spike HR2 peptide

Binding partner: SARS-CoV-2 spike HR2 peptide, sequence PDVDLGDISGINAS.

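The parent was found by panning a naive human phage display library on the peptide. Library AAYL49 holds single substitutions and randomly drawn double and triple substitutions in the CDRs. The assay is AlphaSeq: two haploid yeast populations carry antibody and antigen on their surface. After mating in shaken culture at 30 °C for 16 h, diploids were selected and their barcode pairs sequenced. A regression on co-assayed BCL2-family reference pairs converts the normalised counts of each replicate to an apparent Kd. The assay was run in three technical replicates.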

Each scFv is VH, the linker GGGGSGGGGSGGGGS, VL, as in the parent Ab-14, and differs from it in the CDRs of the heavy chain only.
VH: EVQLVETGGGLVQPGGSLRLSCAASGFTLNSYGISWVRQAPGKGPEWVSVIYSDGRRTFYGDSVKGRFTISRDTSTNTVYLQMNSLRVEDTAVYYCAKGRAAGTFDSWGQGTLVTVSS
VL: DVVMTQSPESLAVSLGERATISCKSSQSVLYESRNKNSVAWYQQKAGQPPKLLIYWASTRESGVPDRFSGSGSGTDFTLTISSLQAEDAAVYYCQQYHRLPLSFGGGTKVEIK

The whole VH of each variant is written out. Every variant below is changed at Y60 of the VH (sequential numbering). The Kd shown is the geometric mean over detected replicates; a lower Kd is a better binder. "nd" means that the variant was in the library but no mating with the target was seen in any replicate; the authors take this as a sign of poor binding, and no number exists.

Variant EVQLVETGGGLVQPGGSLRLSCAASGFTLNSYGISWVRQAPGKGPEWVSVIASDGRRTFNGDSVKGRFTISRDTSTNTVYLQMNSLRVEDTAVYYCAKGRAAGTFKSWGQGTLVTVSS gave nd (0 of 3 replicates).
Variant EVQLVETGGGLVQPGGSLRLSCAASGFTLNSYGISWVRQAPGKGPEWVSVIYSPGRRTFAGDSVKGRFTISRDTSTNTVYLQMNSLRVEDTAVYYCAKGRAAGTFDSWGQGTLVTVSS gave 80 µM (2 of 3 replicates).
Variant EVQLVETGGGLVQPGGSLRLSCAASGFTLNSYGISWVRQAPGKGPEWVSVYYSDGRRTFEGDSVKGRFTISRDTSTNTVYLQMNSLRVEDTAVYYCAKGIAAGTFDSWGQGTLVTVSS gave 76 µM (3 of 3 replicates).
Variant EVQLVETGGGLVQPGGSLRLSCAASGFTLNSYGISWVRQAPGKGPEWVSVIYSDGRRTLVGDSVKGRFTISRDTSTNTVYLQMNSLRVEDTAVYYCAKGRAAGTFDSWGQGTLVTVSS gave 740 nM (1 of 3 replicates).
Variant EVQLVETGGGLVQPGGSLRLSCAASGFTLNSYGISWVRQAPGKGPEWVSVIYSGGRLTFTGDSVKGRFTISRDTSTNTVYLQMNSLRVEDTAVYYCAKGRAAGTFDSWGQGTLVTVSS gave 3.5 µM (1 of 3 replicates).
Variant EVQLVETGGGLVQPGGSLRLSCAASGFTLNLYGISWVRQAPGKGPEWVSVIYSDGRRTFKGDSVKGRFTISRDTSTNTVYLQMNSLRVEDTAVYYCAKGRALGTFDSWGQGTLVTVSS gave nd (0 of 3 replicates).
Variant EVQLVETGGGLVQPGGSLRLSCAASGFTLNSYGISWVRQAPGKGPEWVSVIYSDGRRTFEGDSVKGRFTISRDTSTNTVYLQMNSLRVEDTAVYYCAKGHAAGTFDSWGQGTLVTVSS gave 53 µM (3 of 3 replicates).
Variant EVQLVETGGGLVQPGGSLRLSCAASGFTLNSYGISWVRQAPGKGPEWVSVFYSDGRRTDEGDSVKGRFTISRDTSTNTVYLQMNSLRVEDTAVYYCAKGRAAGTFDSWGQGTLVTVSS gave nd (0 of 3 replicates).
Variant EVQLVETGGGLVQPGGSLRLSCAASGFTLNSYGISWVRQAPGKGPEWVSVIYQLGRRTFNGDSVKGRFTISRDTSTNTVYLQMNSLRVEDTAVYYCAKGRAAGTFDSWGQGTLVTVSS gave nd (0 of 3 replicates).
Variant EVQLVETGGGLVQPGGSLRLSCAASGFTLNSYGISWVRQAPGKGPEWVSVIYSDGYRTFDGDSVKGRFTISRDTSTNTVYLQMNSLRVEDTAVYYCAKGTAAGTFDSWGQGTLVTVSS gave nd (0 of 3 replicates).
Variant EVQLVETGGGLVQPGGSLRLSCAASGFTLNSYGISWVRQAPGKGPEWVSVIYSDGRRTFFGSSVKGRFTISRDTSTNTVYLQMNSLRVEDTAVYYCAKGRAAGTFDSWGQGTLVTVSS gave 910 nM (3 of 3 replicates).
Variant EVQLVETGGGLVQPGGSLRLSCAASGFTTNSYGISWVRQAPGKGPEWVSVIYSDGRRTFMGDSVKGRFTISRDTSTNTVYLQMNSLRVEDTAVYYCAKGSAAGTFDSWGQGTLVTVSS gave nd (0 of 3 replicates).
Variant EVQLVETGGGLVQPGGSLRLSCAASGFTLNSYGIVWVRQAPGKGPEWVSVIYSDGRRTFEGDSVKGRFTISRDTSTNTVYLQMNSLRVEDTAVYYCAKGRAAGTFDSWGQGTLVTVSS gave nd (0 of 3 replicates).
Variant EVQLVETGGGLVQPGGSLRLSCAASGFTLNSYGISWVRQAPGKGPEWVSVIYSDGRRTSSGDSVKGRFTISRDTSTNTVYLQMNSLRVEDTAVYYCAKGRGAGTFDSWGQGTLVTVSS gave 110 µM (2 of 3 replicates).
Variant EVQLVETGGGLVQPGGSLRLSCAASGFFLNSLGISWVRQAPGKGPEWVSVIYSDGRRTFRGDSVKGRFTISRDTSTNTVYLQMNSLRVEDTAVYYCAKGRAAGTFDSWGQGTLVTVSS gave nd (0 of 3 replicates).
Variant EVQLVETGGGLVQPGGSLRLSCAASGFTLNSYGISWVRQAPGKGPEWVSVIYSDGRRTDGGDSVKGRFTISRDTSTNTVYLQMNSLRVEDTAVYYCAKGRARGTFDSWGQGTLVTVSS gave nd (0 of 3 replicates).
Variant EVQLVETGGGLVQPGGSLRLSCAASGFTLNSYGIVWVRQAPGKGPEWVSVIYSDGRRTFHGDSVKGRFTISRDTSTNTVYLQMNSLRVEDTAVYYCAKGRAAGTFDSWGQGTLVTVSS gave 5.8 µM (2 of 3 replicates).
Variant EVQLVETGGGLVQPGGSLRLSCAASGPTLNSYGISWVRQAPGKGPEWVSVIYSDGRSTFCGDSVKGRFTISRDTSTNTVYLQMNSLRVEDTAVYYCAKGRAAGTFDSWGQGTLVTVSS gave 31 µM (3 of 3 replicates).

Extract of 3 entries:

{"VH": "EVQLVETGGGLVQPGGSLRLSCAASGFTLNSYGISWVRQAPGKGPEWVSVIASDGRRTFNGDSVKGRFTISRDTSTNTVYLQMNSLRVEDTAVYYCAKGRAAGTFKSWGQGTLVTVSS", "Kd": "nd", "seen in": "0/3"}
{"VH": "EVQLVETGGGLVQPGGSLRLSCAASGFTLNSYGISWVRQAPGKGPEWVSVIYSPGRRTFAGDSVKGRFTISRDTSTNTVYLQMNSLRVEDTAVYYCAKGRAAGTFDSWGQGTLVTVSS", "Kd": "80 µM", "seen in": "2/3"}
{"VH": "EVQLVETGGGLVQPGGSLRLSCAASGFTLNSYGISWVRQAPGKGPEWVSVFYSDGRRTDEGDSVKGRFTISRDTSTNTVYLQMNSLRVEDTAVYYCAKGRAAGTFDSWGQGTLVTVSS", "Kd": "nd", "seen in": "0/3"}

Empty control strains, which show no peptide, gave a signal in 15% of pairings with library AAYL49; the median was 11 µM and 95% of these signals were weaker than 680 nM. No background was subtracted. In this assay the parent's reference entry averaged 4.4 nM; its copy inside this library read 13 µM (one replicate of three).

Values reported by Engelhart et al. 2022, doi:10.1038/s41597-022-01779-4 (FLAb copy).